{"source": "patent US20200276139A1", "about": "(Evoke Pharma, Inc., priority 2017, published 2020)", "origin": "cited, not measured here", "details": "Reglan package insert; cited from earlier work", "data": [{"smiles": "CCN(CC)CCNC(=O)c1cc(Cl)c(N)cc1OC", "note": "[metoclopramide, 4-amino-5-chloro-N-(2-(diethylamino)ethyl)-2-methoxybenzamide]", "values": [{"measurement": "absorption and elimination kinetics", "value": "linear kinetic processes"}]}]}
